{"sequences": {"note": "Sequences of proteins named here, by UniProt entry; tags and fusion partners are left off.", "UniProt P32245, whole entry, looked up": "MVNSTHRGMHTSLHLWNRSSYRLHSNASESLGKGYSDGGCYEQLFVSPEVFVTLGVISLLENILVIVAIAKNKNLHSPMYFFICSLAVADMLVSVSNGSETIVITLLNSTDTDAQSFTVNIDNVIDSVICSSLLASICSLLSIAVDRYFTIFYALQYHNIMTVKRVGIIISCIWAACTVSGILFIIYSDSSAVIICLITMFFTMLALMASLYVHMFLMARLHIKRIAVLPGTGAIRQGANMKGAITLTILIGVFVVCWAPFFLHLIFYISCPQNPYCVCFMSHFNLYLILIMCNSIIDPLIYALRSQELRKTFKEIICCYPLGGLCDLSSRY"}, "source": "PubChem BioAssay AID540295", "about": "(The Scripps Research Institute Molecular Screening Center, 2011)", "note": "The list shows a part of the results, in another mix than the full data. Calls of active or inactive are those of the source.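 The calls were made as follows: active = inhibition above its plate's cutoff, the mean of tested wells on that plate plus 3 SD (cut at about 29% in these data); inactive = the rest.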"}
{"target": "Melanocortin receptor 4 (Homo sapiens) (UniProt P32245)", "experiment": "blockers of MC4R Gs-cAMP response – cell-based, TR-FRET, antagonist arm of biased-ligand search, primary screen (AID 540295);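 also: 0% = Melanotan II alone and 100% = Melanotan II plus saturating MCL0020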", "settings": "MC4R-expressing cells, MTII-stimulated cAMP, LANCE TR-FRET; at 6.5 µM; active compounds read high"}
{"smiles": "CS(=O)(=O)c1cc([N+](=O)[O-])c2no[n+]([O-])c2c1", "inhibition": "inactive: 20.4%"}
{"smiles": "O=P(Nc1nccs1)(Oc1ccccc1)Oc1ccccc1", "inhibition": "inactive: -0.37%"}
{"smiles": "O=P(Nc1nccs1)(c1ccccc1)c1nc2ccccc2s1", "note": "(stereo not given)", "inhibition": "inactive: 18.9%"}
{"smiles": "CCOP1(=S)c2c(C)nn(CCC#N)c2N=C(c2ccccc2F)N1C", "note": "(stereo not given)", "inhibition": "inactive: 4.9%"}
{"smiles": "O=[N+]([O-])c1cc([N+](=O)[O-])c(-c2ccn[nH]2)s1", "inhibition": "inactive: -2.48%"}
{"smiles": "CC(C)NC(=O)NP(=O)(Oc1ccccc1)Oc1ccccc1", "inhibition": "inactive: -2.75%"}
{"smiles": "O=C(OC1CN2CCC1CC2)c1cccc2[nH]cnc12", "note": "(stereo not given)", "inhibition": "inactive: 0.46%"}
{"smiles": "CCN(CC)C(=S)SC(NC=O)C(Cl)(Cl)Cl", "note": "(stereo not given)", "inhibition": "inactive: 11.1%"}
{"smiles": "COC(=O)C1(C)COP(=O)(N2CCCCCC2)OC1", "note": "(stereo not given)", "inhibition": "inactive: 1.52%"}
{"smiles": "CC(C)c1ccc(OP(=O)(Nc2ccccn2)Oc2ccccc2F)cc1", "note": "(stereo not given)", "inhibition": "inactive: -0.69%"}
{"smiles": "ClCCSc1nnc(-c2cccnc2)o1", "inhibition": "inactive: 0.23%"}
{"smiles": "Cc1ccc2nc3c(c(C)c2c1)CC(C(Cl)Cl)S3", "note": "(stereo not given)", "inhibition": "inactive: 16.5%"}
{"smiles": "CC(Cc1ccc(O)cc1)NCC(O)c1cc(O)cc(O)c1", "note": "(stereo not given)", "inhibition": "inactive: -6.91%"}
{"smiles": "Cc1ccc(OP(=O)(Nc2ccc([N+](=O)[O-])cn2)Oc2ccc(C)cc2)cc1", "inhibition": "inactive: 4.05%"}
{"smiles": "O=[N+]([O-])c1ccc(-c2cc([N+](=O)[O-])c(O)c([N+](=O)[O-])c2)cc1", "inhibition": "inactive: 2.01%"}
{"smiles": "COc1cc(C(=O)NCC2(N3CCOCC3)CCCCC2)ccc1OCC(C)C", "inhibition": "inactive: -8.57%"}
{"smiles": "O=[As](O)(c1ccc(O)cc1)c1ccccc1O", "inhibition": "inactive: 11.2%"}
{"smiles": "C[As](=O)(O)c1cccc(C(=O)O)c1", "inhibition": "inactive: -0.44%"}
{"smiles": "COc1ccc(N/C(=N/P(=O)(N2CCOCC2)N2CCOCC2)N2CCOCC2)cc1", "inhibition": "inactive: 9.71%"}
{"smiles": "O=[N+]([O-])c1cc(Oc2ccc([N+](=O)[O-])cc2C(F)(F)F)cc([N+](=O)[O-])c1", "inhibition": "inactive: 3.42%"}
{"smiles": "COc1cc(I)ccc1[As](=O)(O)O", "inhibition": "inactive: 1.88%"}
{"smiles": "COc1ccc2nc(NP(=O)(c3ccccc3)c3ccccc3)sc2c1", "inhibition": "inactive: 4.18%"}
{"smiles": "O=P1(N(CCCl)CCCl)Nc2ccccc2N1", "inhibition": "inactive: 5.17%"}
{"smiles": "O=P1(N(CCCl)CCCl)OCCCN1CCCl", "note": "(stereo not given)", "inhibition": "inactive: 4.1%"}
{"smiles": "Cc1cc(=O)[nH]c(N[N+](=O)[O-])n1", "inhibition": "inactive: 1.74%"}
{"smiles": "O=C(OC1CN2CCC1CC2)C12CC3CC(CC(C3)C1)C2", "note": "(stereo not given)", "inhibition": "inactive: 5.75%"}
{"smiles": "Cc1c2c(nc3ccccc13)SC(C(Cl)Cl)C2", "note": "(stereo not given)", "inhibition": "inactive: -0.97%"}
{"smiles": "CCC(C)N(CC(C)C)C(=S)SC(NC(C)=O)C(Cl)(Cl)Cl", "note": "(stereo not given)", "inhibition": "inactive: 8.16%"}
{"smiles": "CCOC(=O)c1ccc(NC(=O)C(C)(CCl)SC)cc1", "note": "(stereo not given)", "inhibition": "inactive: 9.89%"}
{"smiles": "CSc1ccc(Nc2c([N+](=O)[O-])cc([N+](=O)[O-])cc2[N+](=O)[O-])cc1", "inhibition": "inactive: 1.5%"}
{"smiles": "O=C(OC1CN2CCC1CC2)c1cccc([N+](=O)[O-])c1", "note": "(stereo not given)", "inhibition": "inactive: 8.39%"}
{"smiles": "O=C(Nc1ccncc1[N+](=O)[O-])c1ccc([N+](=O)[O-])cc1[N+](=O)[O-]", "inhibition": "inactive: 1.88%"}
{"smiles": "O=C(COc1ccccc1)OC1CN2CCC1CC2", "note": "(stereo not given)", "inhibition": "inactive: 11.3%"}
{"smiles": "O=C(O)C(=O)c1ccc(N(CCCl)CCCl)cc1", "inhibition": "inactive: 0.53%"}
{"smiles": "COP1(=S)c2c(C)nn(CCC#N)c2N=C(c2ccc(F)cc2)N1C", "note": "(stereo not given)", "inhibition": "inactive: 10.7%"}
{"smiles": "O=[N+]([O-])c1ccc(Nc2ccc(Oc3ccc([N+](=O)[O-])cc3[N+](=O)[O-])cc2)c([N+](=O)[O-])c1", "inhibition": "inactive: 9.6%"}
{"smiles": "Cc1cc(SC(NC=O)C(Cl)(Cl)Cl)ncn1", "note": "(stereo not given)", "inhibition": "inactive: 5.74%"}
{"smiles": "O=P(Nc1ccccn1)(c1cccc2ccccc12)c1cccc2ccccc12", "inhibition": "inactive: -6.88%"}
{"smiles": "CCOC(=O)Nc1cccc([As](=O)(O)O)c1", "inhibition": "inactive: 1.02%"}
{"smiles": "Cc1cc(SC(NC(=O)c2ccccc2)C(Cl)(Cl)Cl)nc(C(C)C)n1", "note": "(stereo not given)", "inhibition": "inactive: -3.91%"}
{"smiles": "CCCCOc1ccc(C(=O)NCC2(N3CCCCC3)CCCCC2)cc1OC", "inhibition": "inactive: 2.65%"}
{"smiles": "COP(=O)(OC)N1CC1c1ccccc1", "note": "(stereo not given)", "inhibition": "inactive: -2.55%"}
{"smiles": "CC1CCNP(=O)(N(CCCl)CCCl)O1", "note": "(stereo not given)", "inhibition": "inactive: 7.56%"}
{"smiles": "O=C(O)C(O)c1ccc(N(CCCl)CCCl)cc1", "note": "(stereo not given)", "inhibition": "inactive: -1.27%"}
{"smiles": "CCOC(=O)Nc1ccc([As](=O)(O)O)c(O)c1", "inhibition": "inactive: -2.18%"}
